{
  "source": "patent US9872881B2",
  "about": "“Bone and metal targeted polymeric nanoparticles” (The Brigham and Women's Hospital, Inc., priority 2013, dated 2018)",
  "test_system": "bone marrow-derived human mesenchymal stem cells",
  "assay": "ALP enzymatic activity induction in hMSCs",
  "type": "cell-based",
  "protocol": "The in vitro experiments were performed on bone marrow-derived human mesenchymal stem cells (hMSC, PT-2501, Lonza). hMSCs were cultured in normal growth media (POIETICS™ MSCGM™ BULLETKIT™ (PT-3001) Lonza), in 5% CO2 at 37° C. The cells were cultured until 70-75% confluence and were used before passage 5 for all the experiments. The cells were trypsinized (CC-3232, Lonza) and seeded in 48-well plates at the density of 5000 cells/well in normal growth media. After 24 hours, the media was replaced with the normal and osteoconductive (supplemented with 10 nM β-glycerol phosphate and 50 μg/ml ascorbic acid). […]\nIn order to detect the alkaline phosphatase (ALP) activity induced by the rhBMP-2, the hMSCs were seeded in 48 well plates as described above and after 24 hrs incubation in the growth medium the cells were treated with rhBMP-2 loaded NPs in normal media and osteoconductive media conditions. […] The ALP activity in hMSCs was measured using a colorimetric endpoint assay (Alkaline Phosphatase Colorimetric Assay Kit (ab83369)), which quantified the conversion of p-nitrophenol phosphate (pNPP) to yellow p-nitrophenol (pNPP) by ALP enzyme. […] After 1 h of incubation, the absorbance was read at 405 nm in a microplate reader (microplate reader, BioTEK). […]",
  "data": [
    {"substance": "rhBMP2: recombinant bone morphogenic protein BMP-2 added free to the media on day 1 (positive control)", "values": [
      {"measurement": "time of peak ALP activity", "value": "> 14", "unit": "days"}
    ]}
  ]
}
